Values of other authors, collected in paper PMC3953390.

Target: MLCK (UniProt Q15746)

- Kd: 1.1 nM
Substance: calmodulin (from UniProt P0DP23)
